Bioassay records: PubChem, National Center for Advancing Translational Sciences (NCATS)
This is a sample that favours compounds with a hit; in the whole collection about 16% have one here.
TDP1 block – TDP1 (human) enzyme inhibition; recombinant TDP1, AlphaScreen DNA substrate cleavage; Potency, µM (doses to about 130 µM), without a hit: top-dose activity change, negative = inhibition, actives largely listed as inhibitors; hit rate 0.28% among 350,000; Q9NUW8; further: potency means the concentration at half of the fitted maximal effect; on the % scale 0 is the no-effect control and ±100 the full control effect; nearly all actives have a fitted effect of over 40% in size
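Signal: AlphaScreen proximity between streptavidin donor and anti-FITC acceptor beads on intact substrate. Reaction: Tdp1 1 nM, substrate 15 nM final, 5 min RT after 15 min compound preincubation.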
uPA surface inh – blocks generation of uPA at the cell surface; cell surface uPA generation assay, qHTS; Potency, µM (top dose mostly 38.3 µM), inactives show at the top dose activity change, negative = inhibition, most hits filed as inhibitors; hit rate 0.31% among 330,000; active means well fitted inhibition curve with a large enough effect; inconclusive means small, poorly fitted or top-dose-only effect; inactive means no such curve, though single readings can be large or run the other way; tested in mouse RAW 264.7 cells; further: potency means the concentration at half of the fitted maximal effect; on the % scale 0 is the no-effect control and ±100 the full control effect; nearly all actives have a fitted effect of over 55% in size
TDP1 cell CPT – growth inhibition of DT40 Tdp1-/-;hTDP1 cells with camptothecin (screen for TDP1 inhibitors). chicken DT40 Tdp1-/-;hTDP1 cells + 20 nM CPT, ATP luminescence, 48 h. Potency, µM (top dose mostly 46.2 µM), for inactives: at the highest dose activity change, negative = growth inhibition, usual class: inhibitors. hit rate 12% among 420,000. AID 686979; further: potency means the concentration at half of the fitted maximal effect; on the % scale 0 is the no-effect control and ±100 the full control effect; nearly all actives have a fitted effect of over 55% in size
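Cell growth measured by CellTiter-Glo luminescence after a minimum 48 h, 37 C compound exposure with 20 nM CPT in Tdp1-knockout DT40 cells stably expressing hTDP1, seeded 400/well; qHTS titration format.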
DT40 TDP1 no CPT – qHTS for Inhibitors of human tyrosyl-DNA phosphodiesterase 1 (TDP1): qHTS in cells in absence of CPT; DT40 Tdp1-/- hTDP1 cells, no CPT, ATP luminescence, 48 h; Potency, µM (titrated, usually from 46.2 µM), for the others: at the highest dose activity change, negative = growth inhibition, usual class: inhibitors; hit rate 15% among 420,000; AID 686978, 2013; further: potency means the concentration at half of the fitted maximal effect; on the % scale 0 is the no-effect control and ±100 the full control effect; nearly all actives have a fitted effect of over 55% in size
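Cells were dispensed at 400 per well, compounds added by pin tool, plates incubated ≥48 hr at 37 °C, then CellTiter-Glo added for 30 min at room temperature before luminescence reading. Line: DT40 Tdp1-/- complemented with hTDP1; camptothecin omitted.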
miR-21 reporter – raises the signal of a miR-21 reporter | HeLa miR-21 FLuc reporter, luciferase, 48 h | Potency, µM (highest dose often 38.3 µM), for inactives: at the highest dose reporter change, positive = more light | 340,000 tested, under 10 active | AID 2288; active = well fitted rising curve with a large enough effect; inconclusive = small, poorly fitted or top-dose-only effect; inactive = no such curve, though single readings can be large or run the other way;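 also: % of control where 0% means no effect; miR-21 action dims this reporter so a rising signal means less miR-21 action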
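Luminescence from a firefly luciferase reporter carrying a miR-21 binding site downstream, stably expressed under a CMV promoter in HeLa cells that make miR-21 endogenously, reports miRNA modulation after 48 h compound exposure up to approximately 40uM final.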
Numbers without * were called inactive; ? = inconclusive; nt = not tested or not shown; [ ] = dose if it differs, or a comment. Unless noted, the call rests on the fitted dose curve; in most records, active means well fitted curve in the direction sought with a large enough effect; inconclusive means small, poorly fitted or top-dose-only effect, or another doubt; inactive means no such curve, though single readings can be large; an effect the other way counts as inactive or inconclusive.

Short keys: A = TDP1 block; B = uPA surface inh; C = TDP1 cell CPT; D = DT40 TDP1 no CPT; E = miR-21 reporter
compound: COc1ccc(NC(=O)Cn2nnc(C(=O)NCc3ccc4c(c3)OCO4)c2N)cc1
  A: -5% | B: 4% | C: -4% | D: -11% | E: -4%
compound: Nc1c(C(=O)NCc2ccccc2)nnn1Cc1cccc(Br)c1
  A: 5% | B: nt | C: 4.6µM* | D: 5.8µM* | E: 24%
compound: O=C(NC1CC2CCCC(C1)N2C1CC1)NC12CC3CC(CC(C3)C1)C2 (stereo not given)
  A: 2% | B: nt | C: nt | D: nt | E: -3%
compound: Cc1ccc(N(CC(=O)NCc2ccc(F)cc2)C(=O)CCC(=O)Nc2ccccn2)cc1C
  A: 1% | B: 9% | C: ? | D: ? | E: 5%
compound: CC(C)c1ccc(OCC(=O)N(Cc2cccs2)C2CCS(=O)(=O)C2)cc1 (stereo not given)
  A: 0% | B: nt | C: ? | D: ? | E: -8%
compound: CCc1ccc(OCC(=O)N(Cc2cccs2)C2CCS(=O)(=O)C2)cc1 (stereo not given)
  A: nt | B: 0% | C: -21% | D: ? | E: -1%
compound: Cc1ccc(CN(C(=O)COc2ccc(C(C)C)cc2)C2CCS(=O)(=O)C2)o1 (stereo not given)
  A: 9% | B: nt | C: 15µM* | D: 18µM* | E: 11%
compound: CC(C)(C)c1ccc(OCC(=O)N(Cc2cccs2)C2CCS(=O)(=O)C2)cc1 (stereo not given)
  A: nt | B: 9% | C: 16µM* | D: ? | E: 0%
compound: Cc1ccccc1OCCCn1c(-c2ccc(Cl)cc2)nc2ccccc2c1=O
  A: nt | B: nt | C: -12% | D: 0% | E: -2%
compound: Cn1c(-c2ccc(Br)o2)nc2ccccc21
  A: 6% | B: -12% | C: 11µM* | D: 10µM* | E: -32%
compound: Cc1ccc(-c2nc3ccccc3n2C)o1
  A: 8% | B: -14% | C: ? | D: ? | E: -40%
compound: Cn1c2nc3ccccc3c-2nc2ccccc21
  A: nt | B: nt | C: 18µM* | D: 8.2µM* | E: nt
compound: Cn1c(-c2nonc2N)nc2ccccc21
  A: 3% | B: 4% | C: 1% | D: 6% | E: -6%
compound: Cc1nc(SCC(=O)NC2CCCCC2)[nH]c(=O)c1C
  A: nt | B: 4% | C: -12% | D: -9% | E: -4%
compound: CC(C)(C)NC(=O)Cc1ccc(S(=O)(=O)N2CCCC2)s1
  A: 5% | B: -1% | C: 6% | D: -2% | E: -4%
compound: COc1ccc(Br)cc1CNC(=O)c1ccc2c(c1)N(C)CCS2
  A: nt | B: 2% | C: 23µM* | D: ? | E: 1%
compound: CN1CCSc2ccc(C(=O)NCc3cccc(F)c3)cc21
  A: nt | B: 23% | C: ? | D: ? | E: -17%
compound: CCN1CCSc2ccc(C(=O)NCc3ccc(OC(C)C)cc3)cc21
  A: 5% | B: 22% | C: ? | D: ? | E: 0%
compound: COc1ccc(Br)cc1CNC(=O)CCC(=O)N1CCSc2ccccc21
  A: 8% | B: 8% | C: ? | D: 21µM* | E: 5%
compound: CCN1CCSc2ccc(C(=O)NCc3cc(Br)ccc3OC)cc21
  A: nt | B: -2% | C: 16µM* | D: ? | E: 1%
compound: Cc1ccccc1CNC(=O)CCC(=O)N1CCSc2ccccc21
  A: -8% | B: nt | C: ? | D: ? | E: -2%
compound: Cc1cc(C)cc(NC(=O)CCC(=O)N2CCSc3ccccc32)c1
  A: 3% | B: -24% | C: ? | D: 18µM* | E: 17%
compound: O=C(COC(=O)c1cc(-c2cccs2)nc2ccccc12)c1ccc(Cl)cc1
  A: nt | B: nt | C: ? | D: ? | E: 2%
compound: CC(=O)NC1=NN(C(C)=O)C(C)(CS(=O)(=O)c2ccc(Cl)cc2)S1 (stereo not given)
  A: -2% | B: -9% | C: -12% | D: -14% | E: 0%
compound: OC[C@@H]1CN(Cc2ccco2)C[C@H](n2cnc3c(NCc4ccncc4)ncnc32)O1
  A: nt | B: nt | C: 4% | D: 14% | E: nt
compound: OC[C@@H]1CN(Cc2ccc(-c3ccccc3)cc2)C[C@H](n2cnc3c(NCc4ccco4)ncnc32)O1
  A: nt | B: nt | C: 9.2µM* | D: 9.2µM* | E: nt
compound: OC[C@@H]1CN(Cc2ccc(-c3ccccc3)cc2)C[C@H](n2cnc3c(NCc4ccncc4)ncnc32)O1
  A: nt | B: nt | C: 2.9µM* | D: 3.3µM* | E: nt
compound: CN(C)c1ccc(/C=N/NC(=O)CSc2ccccn2)cc1
  A: -4% | B: 0% | C: 6% | D: 3% | E: -37%
compound: CCOc1ccc(-c2c(C)nn3c(C)c(C(=O)Nc4ccccc4C(=O)OC)cnc23)cc1OCC
  A: 8% | B: nt | C: ? | D: -17% | E: 2%
compound: CCOc1ccc(-c2c(C)nn3c(C)c(C(=O)NC(C)c4ccccc4)cnc23)cc1OCC (stereo not given)
  A: 7% | B: nt | C: 21µM* | D: 16µM* | E: 5%

The final four entries of the section above are carried over, then new ones follow.
Short keys: A = TDP1 block; B = uPA surface inh; C = TDP1 cell CPT; D = DT40 TDP1 no CPT; E = miR-21 reporter
compound: OC[C@@H]1CN(Cc2ccc(-c3ccccc3)cc2)C[C@H](n2cnc3c(NCc4ccncc4)ncnc32)O1
  A: nt | B: nt | C: 2.9µM* | D: 3.3µM* | E: nt
compound: CN(C)c1ccc(/C=N/NC(=O)CSc2ccccn2)cc1
  A: -4% | B: 0% | C: 6% | D: 3% | E: -37%
compound: CCOc1ccc(-c2c(C)nn3c(C)c(C(=O)Nc4ccccc4C(=O)OC)cnc23)cc1OCC
  A: 8% | B: nt | C: ? | D: -17% | E: 2%
compound: CCOc1ccc(-c2c(C)nn3c(C)c(C(=O)NC(C)c4ccccc4)cnc23)cc1OCC (stereo not given)
  A: 7% | B: nt | C: 21µM* | D: 16µM* | E: 5%
compound: CCCCNC(=O)c1cnc2c(-c3ccc(OCC)c(OCC)c3)c(C)nn2c1-c1ccccc1
  A: 3% | B: nt | C: ? | D: -30% | E: -10%
compound: CCOc1ccc(-c2c(C)nn3c(C)c(C(=O)NCCc4ccccc4)cnc23)cc1OCC
  A: 7% | B: nt | C: ? | D: 5.2µM* | E: -6%
compound: CCOC(=O)C1=C(COC(=O)/C=C/c2cc(OC)c(OC)c(OC)c2)NC(=O)NC1C (stereo not given)
  A: 2% | B: ? | C: ? | D: ? | E: 4%
compound: CC(=O)C1=C(O)C(=O)N(c2ccc(O)cc2)C1c1cccc([N+](=O)[O-])c1 (stereo not given)
  A: nt | B: 9% | C: 8% | D: -15% | E: 2%
compound: CCOC(=O)C(NC(C)=O)(NC(C)C)C(F)(F)F (stereo not given)
  A: nt | B: 18% | C: -10% | D: -12% | E: 0%
compound: O=C(CSc1nc2cc3ccccc3cc2[nH]1)Nc1cccc(C(F)(F)F)c1
  A: 3% | B: nt | C: 18µM* | D: 21µM* | E: -3%
compound: CCOC(=O)c1ccccc1NC(=O)CSc1nc2ccncc2[nH]1
  A: 2% | B: -11% | C: ? | D: ? | E: -2%
compound: O=C(CSc1nc2ccncc2[nH]1)Nc1ccccc1C(F)(F)F
  A: 4% | B: -3% | C: ? | D: 15µM* | E: 1%
compound: COc1cc(OC)c(NC(=O)CSc2nc3ccncc3[nH]2)cc1Cl
  A: ? | B: nt | C: 6.5µM* | D: 5.2µM* | E: ?
compound: COc1cccc(NC(=O)C2CCCN(S(=O)(=O)c3c(C)[nH]c(=O)[nH]c3=O)C2)c1 (stereo not given)
  A: 2%[12.3 µM] | B: nt | C: -16% | D: 1% | E: 4%
compound: O=S1(=O)N[C@@H](CC2CCCCC2)COc2cc(Br)ccc21
  A: nt | B: 1.6µM* | C: 15µM* | D: ? | E: nt
compound: CC(C)C[C@H]1COc2cc(Br)ccc2S(=O)(=O)N1
  A: nt | B: nt | C: -16% | D: ? | E: nt
compound: CCOC(=O)Cc1csc(SCn2nnc3ccccc3c2=O)n1
  A: 3% | B: -6% | C: -22% | D: ? | E: -15%
compound: CCOC(=O)Cc1csc(N/N=C/c2ccc(C(F)(F)F)cc2)n1
  A: 3% | B: -5% | C: 9% | D: -7% | E: 12%
compound: CCOC(=O)Cc1csc(-n2sc3ccccc3c2=O)n1
  A: 7% | B: 9% | C: 5.2µM* | D: 12µM* | E: -19%
compound: CCOC(=O)Cc1csc(/N=C/c2c(O)n(-c3ccccc3C(F)(F)F)c(=O)c3ccccc23)n1
  A: 3% | B: -26% | C: 21µM* | D: ? | E: -1%
compound: C[C@@H]1CCCCCCCCC(=O)OCCN1C(=O)OC(C)(C)C
  A: -3% | B: 4% | C: 16µM* | D: ? | E: nt
compound: CC(C)(C)OC(=O)N1CCC[C@@H]1CO
  A: 8% | B: 13% | C: -3% | D: 9% | E: nt
compound: CCOC(=O)c1c(-c2cccs2)csc1NC(=O)CNCCN1CCOCC1
  A: 7% | B: nt | C: nt | D: nt | E: -12%
